Measurements published in patent publication US7097990B2, “Method of screening cell death inhibitor” (Astellas Pharma Inc., priority 2001, dated 2006).

Test system: human LTRPC2 protein
Test: 86Rb+ efflux: activation of human LTRPC2 protein by PARP activator in transfected CHO dhfr- cells
Details: MNNG 1 mmol/liter or H2O2 0.06%, room temperature 30 minutes; control without MNNG or H2O2

## CN(N=O)C(=N)N[N+](=O)[O-]
  residual activity of 86Rb+ in comparison with the control cells: 35.6%
